Earlier results on 2 compounds are cited in article PMC3720659, “Integrated Analysis of Drug-Induced Gene Expression Profiles Predicts Novel hERG Inhibitors” (PLoS ONE, 2013).

In data set [1] the test system is hERG current. As to conditions: cited from earlier work; call rule not given here.
For data set [2] the following is noted: drug on LQT Drug List; the Cell Line (HL60, MCF7, PC3) is the cell line of the expression profile; cited from earlier work.

As to `COc1cc(NC(C)CCCN)c2ncccc2c1` (centres unmarked) [primaquine], the “Annotation (hERG Active / Inactive)” value in data set [1] is “Inactive”. Turning to `CC(N)C(O)c1ccccc1` (centres unmarked) [phenylpropanolamine], the “Annotation (LQT Drug)” value in data set [2] is listed as “LQT Drug”.
